Measurements published in ChEMBL document CHEMBL4507301, “Data for DCP probe (R)-9s” (2021).

Sequences of proteins named here, by UniProt entry; tags and fusion partners are left off.
UniProt P18089, whole entry: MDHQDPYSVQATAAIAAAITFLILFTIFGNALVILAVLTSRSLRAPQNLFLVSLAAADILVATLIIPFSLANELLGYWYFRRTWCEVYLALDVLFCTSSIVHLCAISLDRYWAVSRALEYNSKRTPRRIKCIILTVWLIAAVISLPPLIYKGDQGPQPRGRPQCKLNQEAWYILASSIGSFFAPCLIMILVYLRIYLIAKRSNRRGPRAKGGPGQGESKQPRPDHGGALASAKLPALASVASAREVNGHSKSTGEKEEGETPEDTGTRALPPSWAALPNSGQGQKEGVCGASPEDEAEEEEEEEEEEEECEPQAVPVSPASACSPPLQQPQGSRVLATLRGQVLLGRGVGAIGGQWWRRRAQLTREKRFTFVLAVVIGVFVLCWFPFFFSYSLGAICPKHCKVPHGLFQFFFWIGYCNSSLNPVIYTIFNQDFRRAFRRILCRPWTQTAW

Key:
[1] = target: T1, Alpha-1A adrenergic receptor (Homo sapiens) (UniProt P35348); conditions: Compound concentration 10.0 uM
T1 sequence (whole entry): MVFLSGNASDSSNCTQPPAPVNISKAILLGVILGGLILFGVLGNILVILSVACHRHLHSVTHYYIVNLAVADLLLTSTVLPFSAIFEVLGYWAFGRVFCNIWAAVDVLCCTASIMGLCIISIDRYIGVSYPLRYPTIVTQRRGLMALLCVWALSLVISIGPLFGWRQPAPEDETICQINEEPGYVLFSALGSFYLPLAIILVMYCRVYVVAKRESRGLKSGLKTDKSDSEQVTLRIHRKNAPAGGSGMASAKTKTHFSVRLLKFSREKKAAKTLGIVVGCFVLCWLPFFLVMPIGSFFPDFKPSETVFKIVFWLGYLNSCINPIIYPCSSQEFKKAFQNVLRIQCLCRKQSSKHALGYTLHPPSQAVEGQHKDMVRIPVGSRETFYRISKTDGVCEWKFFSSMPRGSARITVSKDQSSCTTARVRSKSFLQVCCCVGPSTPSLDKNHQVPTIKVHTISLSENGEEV

[2] = target: Alpha-2B adrenergic receptor (Homo sapiens, UniProt P18089); conditions: Compound concentration 10.0 uM

C[C@H](c1cccc(C#N)c1)n1cc(Cl)cc(C(N)=O)c1=N [(R)-9s]
inhibition [1]: 83.9%
inhibition [2]: 80.1%
